Apparent affinities of Ab-95 variants for a coronavirus HR2 peptide

The measurements come from Engelhart et al. 2022 (doi:10.1038/s41597-022-01779-4) through the FLAb antibody collection.

Binding partner: SARS-CoV-2 spike HR2 peptide, sequence PDVDLGDISGINAS.

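Phage display of a naive human antibody library on the peptide gave the parent. AAYL52 was designed without a model: most single CDR substitutions and a random sample of double and triple ones. Affinity was read by AlphaSeq, a pooled yeast mating assay with surface-displayed partners. Mating (16 h, 30 °C) was followed by selection of diploids and sequencing of their barcodes. Read counts were normalised to the haploid input and turned into Kd by a linear fit to BCL2-family pairs of known affinity, for each replicate. The assay was run in three technical replicates.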

Each scFv is VH, three GGGGS repeats, VL, as in the parent Ab-95, and differs from it in the CDRs of the light chain only.
VH: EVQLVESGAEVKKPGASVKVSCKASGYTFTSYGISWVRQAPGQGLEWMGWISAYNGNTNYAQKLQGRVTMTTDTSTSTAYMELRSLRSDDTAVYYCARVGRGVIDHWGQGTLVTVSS
VL: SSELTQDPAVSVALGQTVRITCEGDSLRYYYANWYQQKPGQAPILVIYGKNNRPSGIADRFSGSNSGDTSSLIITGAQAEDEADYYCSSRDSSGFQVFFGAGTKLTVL

Sequences are complete VL domains.
Every variant below is changed at P54 of the VL (sequential numbering).
Values are apparent Kd, the geometric mean of the replicates that gave a signal; lower means stronger binding.
"no signal" means that the variant was in the library but no mating with the target was seen in any replicate; the authors take this as a sign of poor binding, and no number exists.
Nonspecific signal, from three strains lacking the peptide, appeared in 28% of pairings of library AAYL52, centred on 8.2 µM (5% of these signals below 800 nM); values are not corrected for it. For each scFv, signals with the empty controls are counted beside the result.
Parent in this assay: reference entry 200 nM, copy in this library 180 nM.

Variant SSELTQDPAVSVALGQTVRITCEGDSLRYYYANWYQQKPGQAPILVIYGKNNRNSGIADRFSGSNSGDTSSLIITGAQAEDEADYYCSWRDSSGFQVFFGAGTKLTVL gave 850 nM (3 of 3 replicates; controls 3 of 9). Variant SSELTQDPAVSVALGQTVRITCEGDSLRYYYANWYQQKPGQAPILVIYGKNNRWRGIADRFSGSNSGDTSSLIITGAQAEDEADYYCSSNDSSGFQVFFGAGTKLTVL showed 3.3 µM (2 of 3 replicates; controls 3 of 9). For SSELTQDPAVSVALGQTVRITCEGDSLRYYYANWYQQKPGQAPILVIYGKNNRFSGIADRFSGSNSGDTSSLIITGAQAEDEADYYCSSRDSSGFQECFGAGTKLTVL, the assay gave 28 µM (1 of 3 replicates; controls 1 of 9). With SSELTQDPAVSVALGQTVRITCEGDSLRYYYANWYQQKPGQAPILVIYGKNNRISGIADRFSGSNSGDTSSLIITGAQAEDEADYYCSSRDSSGFQEFFGAGTKLTVL the result was 19 µM (1 of 3 replicates; controls 2 of 9). Variant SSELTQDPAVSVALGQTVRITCEGDSLRYYYANWYQQKPGQAPILVIYGKNNRISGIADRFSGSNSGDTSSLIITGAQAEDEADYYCSSSDSSGFQVVFGAGTKLTVL showed 8.6 µM (3 of 3 replicates; controls 3 of 9). Variant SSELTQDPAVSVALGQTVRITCEGDSLRYYYANWYQQKPGQAPILVIYGKNNRTSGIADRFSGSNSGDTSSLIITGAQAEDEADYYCSSRDSSGFQVDFGAGTKLTVL gave no signal (0 of 3 replicates; controls 0 of 9). Variant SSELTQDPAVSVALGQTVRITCEGDSLRYYYANWYQQKPGQAPILVIYGSNNRGSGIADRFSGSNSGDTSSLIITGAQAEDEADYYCSDRDSSGFQVFFGAGTKLTVL gave 8.4 µM (3 of 3 replicates; controls 3 of 9). Variant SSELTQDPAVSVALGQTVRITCCGDSLRYYYAGWYQQKPGQAPILVIYGKNNRMSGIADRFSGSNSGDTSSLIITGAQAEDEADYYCSSRDSSGFQVFFGAGTKLTVL gave 180 µM (1 of 3 replicates; controls 7 of 9).

Variant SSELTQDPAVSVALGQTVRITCEGDSLRYIYAHWYQQKPGQAPILVIYGKNNRMSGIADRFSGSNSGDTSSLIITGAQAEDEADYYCSSRDSSGFQVFFGAGTKLTVL showed 17 µM (2 of 3 replicates; controls 3 of 9). Variant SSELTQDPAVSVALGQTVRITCEGDSLRLYYANWYQQKPGQAPILVIYGGNNRDSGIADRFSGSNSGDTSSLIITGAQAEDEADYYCSSRDSSGFQVFFGAGTKLTVL showed 3.3 µM (1 of 3 replicates; controls 1 of 9). Variant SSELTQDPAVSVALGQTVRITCEGDSLRYYYANWYQQKPGQAPILVIYGKNLRCSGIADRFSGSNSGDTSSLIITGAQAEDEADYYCSSRDSSGFQVFFGAGTKLTVL gave 14 µM (2 of 3 replicates; controls 3 of 9). With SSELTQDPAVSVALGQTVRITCEGWSLNYYYANWYQQKPGQAPILVIYGKNNRLSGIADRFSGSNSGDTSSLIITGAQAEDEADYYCSSRDSSGFQVFFGAGTKLTVL the result was 17 µM (1 of 3 replicates; controls 3 of 9). For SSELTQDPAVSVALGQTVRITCEGDSLRYYDANWYQQKPGQAPILVIYGWNNRTSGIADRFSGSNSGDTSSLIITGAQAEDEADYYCSSRDSSGFQVFFGAGTKLTVL, the assay gave 3.0 µM (3 of 3 replicates; controls 1 of 9). For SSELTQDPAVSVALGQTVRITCEGDSLHYYYANWYQQKPGQAPILVIYGKNNATSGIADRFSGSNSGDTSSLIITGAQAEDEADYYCSSRDSSGFQVFFGAGTKLTVL, the assay gave 40 µM (1 of 3 replicates; controls 1 of 9). With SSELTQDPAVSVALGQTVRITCEGDSLRYYPANWYQQKPGQAPILVIYGKNNRQSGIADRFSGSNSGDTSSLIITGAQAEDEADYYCSSNDSSGFQVFFGAGTKLTVL the result was no signal (0 of 3 replicates; controls 0 of 9). Variant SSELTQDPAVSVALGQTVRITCEGDSLRYYYANWYQQKPGQAPILVIYGKNNRWSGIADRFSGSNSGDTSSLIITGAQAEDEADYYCKSRDSSGFQVFFGAGTKLTVL showed 2.8 µM (3 of 3 replicates; controls 1 of 9).

Variant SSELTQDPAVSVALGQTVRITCEMDSLRYYYANWYQQKPGQAPILVIYGKNNRQSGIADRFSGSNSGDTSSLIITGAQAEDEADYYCSSRDSSGLQVFFGAGTKLTVL gave no signal (0 of 3 replicates; controls 1 of 9). Variant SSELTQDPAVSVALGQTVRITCEGDSLRYEYANWYQQKPGQAPILVIYGKNNTHSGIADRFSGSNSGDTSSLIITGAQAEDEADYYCSSRDSSGFQVFFGAGTKLTVL gave 450 nM (3 of 3 replicates; controls 3 of 9). For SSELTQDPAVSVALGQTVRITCEGDSLRYYYANWYQQKPGQAPILVIYVKNNRYMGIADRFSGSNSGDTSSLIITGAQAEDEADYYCSSRDSSGFQVFFGAGTKLTVL, the assay gave 10 µM (2 of 3 replicates; controls 2 of 9). With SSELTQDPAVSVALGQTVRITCEGDSLRYYYANWYQQKPGQAPILVIYGKNNKNSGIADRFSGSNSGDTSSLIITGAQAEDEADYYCSSRYSSGFQVFFGAGTKLTVL the result was 5.7 µM (3 of 3 replicates; controls 4 of 9). Variant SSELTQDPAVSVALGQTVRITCEGDSERYYYANWYQQKPGQAPILVIYGKNNRCSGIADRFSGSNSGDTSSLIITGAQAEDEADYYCSSRDSSGFQVFFGAGTKLTVL gave 26 µM (2 of 3 replicates; controls 4 of 9). Variant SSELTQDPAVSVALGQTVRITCEGDSLRGYYAYWYQQKPGQAPILVIYGKNNRYSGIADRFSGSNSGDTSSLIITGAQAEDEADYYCSSRDSSGFQVFFGAGTKLTVL gave 24 µM (1 of 3 replicates; controls 2 of 9).

For reference, 2 entries of the list once more:

With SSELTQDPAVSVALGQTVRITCEGDSLRYYYANWYQQKPGQAPILVIYGKNNRWRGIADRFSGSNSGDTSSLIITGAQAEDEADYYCSSNDSSGFQVFFGAGTKLTVL the result was 3.3 µM (2 of 3 replicates; controls 3 of 9).
With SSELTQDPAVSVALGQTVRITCEGDSLRYYYANWYQQKPGQAPILVIYGKNNRFSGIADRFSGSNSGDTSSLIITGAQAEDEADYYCSSRDSSGFQECFGAGTKLTVL the result was 28 µM (1 of 3 replicates; controls 1 of 9).